{"sequences": {"note": "Amino acid sequences for entries named in this document (tags omitted).", "UniProt P11940, whole entry": "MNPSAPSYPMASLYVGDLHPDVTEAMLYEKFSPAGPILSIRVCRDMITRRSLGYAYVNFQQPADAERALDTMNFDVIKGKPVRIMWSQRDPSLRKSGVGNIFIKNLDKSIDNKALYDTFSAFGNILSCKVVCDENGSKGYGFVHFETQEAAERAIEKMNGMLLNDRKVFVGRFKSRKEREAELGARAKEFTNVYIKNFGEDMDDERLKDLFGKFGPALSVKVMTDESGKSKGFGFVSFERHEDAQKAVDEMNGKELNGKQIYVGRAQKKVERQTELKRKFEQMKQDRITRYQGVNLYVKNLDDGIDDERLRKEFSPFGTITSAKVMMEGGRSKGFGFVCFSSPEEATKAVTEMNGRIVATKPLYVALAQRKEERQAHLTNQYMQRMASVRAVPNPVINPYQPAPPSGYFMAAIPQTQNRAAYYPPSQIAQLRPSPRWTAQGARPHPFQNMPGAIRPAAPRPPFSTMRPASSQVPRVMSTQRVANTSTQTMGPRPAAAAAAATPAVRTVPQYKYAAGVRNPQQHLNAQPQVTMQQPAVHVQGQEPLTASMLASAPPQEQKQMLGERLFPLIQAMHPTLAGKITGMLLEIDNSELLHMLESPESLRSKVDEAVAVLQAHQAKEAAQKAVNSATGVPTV"}, "source": "PubChem BioAssay AID588489", "about": "(Sanford-Burnham Center for Chemical Genomics, 2011)", "note": "This is a selection; strong and weak results do not stand in their true shares. Some results for these compounds are left out of this collection, so the calls shown say nothing about other tests. Active and inactive are the calls of the source. Rule as the data show it: active = inhibition above about 35% (passing the limit was not always enough); inactive = the rest.", "data": [{"molecular_target": "Polyadenylate-binding protein 1 (Homo sapiens) (UniProt P11940)", "assay": "PAM2 peptide displacement from PABP1 MLLE – biochemical, fluorescence polarization, FITC-PAM2, GST-MLLE, primary screen (AID 588489);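 also: plate controls were DMSO wells with GST-MLLE for no effect and wells lacking GST-MLLE protein for full effect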", "conditions": "at 20 µM, active compounds read high", "values": [{"smiles": "COc1ccc(C(=O)NCC2(N(C)C)CCCCC2)cc1", "inhibition": "inactive: -14.3%"}, {"smiles": "O=C(NCC1(N2CCCCC2)CCCCC1)c1cccc(Br)c1", "inhibition": "inactive: -5.8%"}, {"smiles": "Cc1cc(C(=O)NCC2(N3CCCCC3)CCCCC2)ccc1[N+](=O)[O-]", "inhibition": "inactive: -4.14%"}, {"smiles": "CCN1CCCC(OC(=O)C2(O)c3ccccc3C=Cc3ccccc32)C1", "note": "(stereo unspecified)", "inhibition": "inactive: -2.95%"}, {"smiles": "O=C(NCC1(N2CCCCC2)CCCCC1)c1cc(F)c(F)cc1Cl", "inhibition": "inactive: 2.65%"}, {"smiles": "C=CCN1CCN(CCOC(=O)C(O)(c2ccccc2)c2ccccc2)CC1", "inhibition": "inactive: -3.09%"}, {"smiles": "CN(C)C1CCCC1OC(=O)C(O)(c1ccccc1)c1ccccc1", "note": "(stereo unspecified)", "inhibition": "inactive: 22.5%"}, {"smiles": "CN(C)c1ccc(C(=O)NCC2(N(C)C)CCCCC2)cc1", "inhibition": "inactive: -4.01%"}, {"smiles": "Cc1ccccc1C(=O)NCC1(N2CCCCC2)CCCCC1", "inhibition": "inactive: -6.51%"}, {"smiles": "Cc1ccc(C(=O)NCC2(N3CCCCC3)CCCCC2)cc1", "inhibition": "inactive: -7.9%"}, {"smiles": "COc1cc(SC)ccc1C(=O)NCC1(N(C)C)CCCCC1", "inhibition": "inactive: -10.8%"}, {"smiles": "CCN(CC)CC(C)C(C)OC(=O)C(O)(c1ccccc1)c1ccccc1", "note": "(stereo unspecified)", "inhibition": "inactive: -2.73%"}, {"smiles": "CC(C)N1C(=O)CC2(CCN(CCOC(=O)C(O)(c3ccccc3)c3ccccc3)CC2)C1=O", "inhibition": "inactive: 5.48%"}, {"smiles": "CN1[C@@H]2CC[C@H]1CC(OC(=O)C(O)(c1ccccc1)c1ccccc1)C2", "note": "(stereo partly specified)", "inhibition": "inactive: -18.6%"}, {"smiles": "O=C(NCC1(N2CCCCC2)CCCCC1)c1cc([N+](=O)[O-])ccc1Cl", "inhibition": "inactive: -30.4%"}, {"smiles": "O=C(OCCN1CCCC1)C(O)(c1ccccc1)c1ccccc1", "inhibition": "inactive: 5.82%"}, {"smiles": "CC(C)Oc1ccc(C(=O)NCC2(N(C)C)CCCCC2)cc1", "inhibition": "inactive: 7.64%"}, {"smiles": "CN(C)c1cccc(C(=O)NCC2(N(C)C)CCCCC2)c1", "inhibition": "inactive: 2.32%"}, {"smiles": "C=C(C)C#CC(O)(C(=O)OC1CCN(C)CC1)c1ccccc1", "note": "(stereo unspecified)", "inhibition": "inactive: 5.49%"}, {"smiles": "COc1ccc(Br)c(C(=O)NCC2(N3CCCCC3)CCCCC2)c1", "inhibition": "inactive: -8.99%"}, {"smiles": "O=C(OC1CN2CCC1CC2)C(CO)(c1ccccc1)c1ccccc1", "note": "(stereo unspecified)", "inhibition": "inactive: -12.8%"}, {"smiles": "O=C(NCC1(N2CCCCC2)CCCCC1)c1cccc(Cl)c1", "inhibition": "inactive: -3.38%"}, {"smiles": "COc1ccc(Cl)cc1C(=O)NCC1(N(C)C)CCCCC1", "inhibition": "inactive: -10.4%"}, {"smiles": "COc1cccc(C(=O)NCC2(N3CCCCC3)CCCCC2)c1", "inhibition": "inactive: -6.21%"}, {"smiles": "COc1cc(C(=O)NCC2(N(C)C)CCCCC2)c([N+](=O)[O-])cc1OC", "inhibition": "inactive: 8.56%"}, {"smiles": "CN(C)C1(CNC(=O)c2ccc(Br)cc2)CCCCC1", "inhibition": "inactive: -3.73%"}]}]}
